As a reminder, the LD50 is the dose at which mortality reaches 50%. Low readings indicate a more toxic substance, high ones a less toxic substance.

One data set is described as follows: rat acute oral toxicity. The conditions noted are these: in vivo.
Data set [1] in a line: GHS categories as the set defines them, by LD50: 1 up to 5, 2 up to 50, 3 up to 300, 4 up to 2000, 5 above 2000 mg/kg. The conditions noted are these: rat; in vivo; po.

On to `COc1cc2c(c3oc4cccc(O)c4c(=O)c13)C1C=COC1O2` (stereo not drawn), for which, in “rat acute oral toxicity”, the LD50 is 120 mg/kg.

`NC(=O)c1cc([N+](=O)[O-])cc([N+](=O)[O-])c1N`: in data set [1], the GHS category stood at 5.

In data set [1], `C/N=C(\N)N[N+](=O)[O-]` showed a GHS category of 5.

These data come from the CATMoS acute toxicity set (Mansouri et al. 2021).
